Reference: patent EP1202975B1 (dated 2000)

Amino acid sequences for entries named in this document (tags omitted). Residues count along the entry.
UniProt P08709, 61-212 limits assumed: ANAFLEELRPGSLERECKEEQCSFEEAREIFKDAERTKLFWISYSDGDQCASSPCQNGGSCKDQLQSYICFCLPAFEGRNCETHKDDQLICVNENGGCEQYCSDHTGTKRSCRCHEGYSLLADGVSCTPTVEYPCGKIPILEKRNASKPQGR
UniProt P08709, 213-466 limits assumed: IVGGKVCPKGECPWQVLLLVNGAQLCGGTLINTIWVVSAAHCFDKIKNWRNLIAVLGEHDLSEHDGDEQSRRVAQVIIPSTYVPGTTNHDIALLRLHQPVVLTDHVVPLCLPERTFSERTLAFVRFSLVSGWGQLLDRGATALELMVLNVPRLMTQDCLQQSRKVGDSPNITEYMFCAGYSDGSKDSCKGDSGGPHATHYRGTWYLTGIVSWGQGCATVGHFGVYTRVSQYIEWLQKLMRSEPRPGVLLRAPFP
UniProt P00742, 41-179 limits assumed: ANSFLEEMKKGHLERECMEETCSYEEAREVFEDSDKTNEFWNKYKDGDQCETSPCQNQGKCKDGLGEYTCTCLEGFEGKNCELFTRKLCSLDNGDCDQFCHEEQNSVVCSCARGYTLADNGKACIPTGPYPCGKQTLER
UniProt P00742, 235-488 limits assumed: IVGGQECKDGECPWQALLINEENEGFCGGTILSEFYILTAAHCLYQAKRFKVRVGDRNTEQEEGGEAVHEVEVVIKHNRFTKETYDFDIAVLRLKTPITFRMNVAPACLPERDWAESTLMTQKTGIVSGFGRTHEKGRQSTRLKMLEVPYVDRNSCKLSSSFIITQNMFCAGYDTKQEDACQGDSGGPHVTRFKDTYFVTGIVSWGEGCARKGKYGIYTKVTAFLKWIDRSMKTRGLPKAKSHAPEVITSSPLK

How the values were obtained:
TF-VIIa = TF-VIIa (Homo sapiens, UniProt P08709); experiment: TF-VIIa Assay
Human factor Xa = Human factor Xa (Homo sapiens, UniProt P00742)

| Structure (SMILES) | % Inhibition TF-VIIa (100 µM) (TF-VIIa) | % Inhibition Factor Xa (100 µM) (Human factor Xa) |
| --- | --- | --- |
| O=C(Cn1c(-c2ccc(-c3ccccc3)cc2)c(Cl)nc(NCCc2cccc(Cl)c2)c1=O)NCCc1ccncc1 [Example E-0051] | 0% |  |
| O=C(Cn1c(-c2ccc(-c3ccccc3)cc2)c(Cl)nc(NCCc2ccccc2)c1=O)NCCc1cccnc1 [Example E-0113] |  | 3% |
| O=C(Cn1c(-c2ccc(-c3ccccc3)cc2)c(Cl)nc(NCCc2cccc(Cl)c2)c1=O)NCCc1ccncc1 [Example E-0115] | is |  |
